{"sequences": {"note": "Protein sequences, listed by entry. Tags and fused reporters are not part of them.", "UniProt P57771, whole entry": "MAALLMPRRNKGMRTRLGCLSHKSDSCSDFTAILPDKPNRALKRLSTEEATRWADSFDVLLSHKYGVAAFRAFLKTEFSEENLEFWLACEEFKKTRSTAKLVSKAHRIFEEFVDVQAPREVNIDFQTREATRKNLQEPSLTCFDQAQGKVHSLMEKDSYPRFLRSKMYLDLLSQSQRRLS"}, "source": "patent US8865750B2", "about": "“Small molecule inhibitors of RGS proteins” (The Regents of The University of Michigan, priority 2011, dated 2014)", "key": {"RGS8": {"target": "RGS8 (Homo sapiens (Human), UniProt P57771)", "assay": "FCPIA: Gαo binding to RGS8"}, "HEK293 cells": {"test_system": "HEK293 cells", "assay": "Calcium mobilization induced by compound alone;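 also: percent of response to 10 µM reference CCG-50014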", "details": "10 μM compound, percentage of effect of 10 μM CCG-50014"}}}
{"compound": "CC(C)(C)c1ccc(-n2c(=O)sn(-c3cccc(Cl)c3)c2=O)cc1", "values": [{"measurement": "RGS8 Hill Slope", "setting": "RGS8; Table 3", "value": "−0.58"}, {"measurement": "IC50", "setting": "RGS8; read-out: RGS8 IC50, Table 3, duplex FCPIA, average of two experiments", "value": 32.2, "unit": "µM"}, {"measurement": "Calcium transient (% 50014)", "setting": "HEK293 cells", "value": 31.8, "unit": "% 50014"}]}
